What all share (assay): Thermal shift assay
Holding throughout (assay type): binding

Amino acid sequences for entries named in this document (tags omitted). Residues count along the entry.
UniProt P45983, 1-364: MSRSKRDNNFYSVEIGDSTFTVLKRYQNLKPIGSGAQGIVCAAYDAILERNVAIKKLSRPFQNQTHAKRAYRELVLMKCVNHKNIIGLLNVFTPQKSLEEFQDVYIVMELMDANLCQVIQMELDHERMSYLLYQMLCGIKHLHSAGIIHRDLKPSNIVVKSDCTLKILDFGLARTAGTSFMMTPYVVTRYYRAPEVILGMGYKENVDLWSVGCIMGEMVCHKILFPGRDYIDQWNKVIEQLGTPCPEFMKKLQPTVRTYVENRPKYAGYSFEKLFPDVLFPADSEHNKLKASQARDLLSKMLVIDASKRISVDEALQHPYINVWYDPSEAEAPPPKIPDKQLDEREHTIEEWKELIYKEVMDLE
UniProt P15056, 448-723: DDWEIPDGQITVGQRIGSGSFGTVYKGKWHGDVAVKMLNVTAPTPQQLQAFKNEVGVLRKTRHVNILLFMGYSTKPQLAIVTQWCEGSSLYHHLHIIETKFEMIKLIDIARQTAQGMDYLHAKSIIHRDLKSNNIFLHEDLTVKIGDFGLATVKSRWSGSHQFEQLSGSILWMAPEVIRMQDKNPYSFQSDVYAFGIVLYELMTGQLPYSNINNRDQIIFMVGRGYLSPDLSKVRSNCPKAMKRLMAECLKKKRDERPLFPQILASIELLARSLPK
UniProt Q9P289, 1-300: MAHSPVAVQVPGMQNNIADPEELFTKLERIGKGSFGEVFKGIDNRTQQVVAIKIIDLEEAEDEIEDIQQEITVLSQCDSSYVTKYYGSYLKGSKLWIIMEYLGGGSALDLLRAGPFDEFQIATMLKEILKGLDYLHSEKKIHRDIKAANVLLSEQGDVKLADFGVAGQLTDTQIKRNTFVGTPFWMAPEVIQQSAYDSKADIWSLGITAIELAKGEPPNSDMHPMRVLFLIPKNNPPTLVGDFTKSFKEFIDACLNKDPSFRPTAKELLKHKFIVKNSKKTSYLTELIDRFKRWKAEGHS
UniProt P68400, 1-337: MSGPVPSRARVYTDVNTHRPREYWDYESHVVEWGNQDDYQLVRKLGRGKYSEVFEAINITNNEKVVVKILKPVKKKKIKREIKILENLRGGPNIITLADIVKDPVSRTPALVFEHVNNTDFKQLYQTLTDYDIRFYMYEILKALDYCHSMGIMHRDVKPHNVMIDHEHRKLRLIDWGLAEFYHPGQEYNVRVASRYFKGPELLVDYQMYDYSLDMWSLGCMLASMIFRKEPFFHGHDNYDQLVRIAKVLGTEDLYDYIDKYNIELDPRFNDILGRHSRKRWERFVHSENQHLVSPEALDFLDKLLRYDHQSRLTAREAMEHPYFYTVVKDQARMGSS
UniProt P11309, whole entry: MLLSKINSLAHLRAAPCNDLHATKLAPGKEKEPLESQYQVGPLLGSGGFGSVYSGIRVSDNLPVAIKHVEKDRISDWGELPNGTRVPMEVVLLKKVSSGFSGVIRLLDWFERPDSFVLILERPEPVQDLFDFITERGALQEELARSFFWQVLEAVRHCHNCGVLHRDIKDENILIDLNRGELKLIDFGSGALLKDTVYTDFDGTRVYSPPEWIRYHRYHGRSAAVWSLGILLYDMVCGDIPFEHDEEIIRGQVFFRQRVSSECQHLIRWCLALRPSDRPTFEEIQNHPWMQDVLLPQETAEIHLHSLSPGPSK

Test [1] deals with T1, CSNK1D (Homo sapiens, UniProt P48730).
T1 construct: purchased in-house thermal shift (DSF) kinase panel (SGC Frankfurt); Promega NanoBRET for AURKA/B/C
T1 sequence (P48730 1-294): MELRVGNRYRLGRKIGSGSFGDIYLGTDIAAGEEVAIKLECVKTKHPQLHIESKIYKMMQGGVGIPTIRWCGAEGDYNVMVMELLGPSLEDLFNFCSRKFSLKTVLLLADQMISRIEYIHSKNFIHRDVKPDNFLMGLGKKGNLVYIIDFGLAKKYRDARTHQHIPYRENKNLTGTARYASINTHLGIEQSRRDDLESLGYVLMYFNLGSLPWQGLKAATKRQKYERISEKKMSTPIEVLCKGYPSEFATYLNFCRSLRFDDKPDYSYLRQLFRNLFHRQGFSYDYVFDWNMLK
To be noted: compound 10 µM; n = 3.

Test [2] concerns the target T2, MAPK8 (Homo sapiens, UniProt P45983).
T2 construct: purchased in-house thermal shift (DSF) kinase panel (SGC Frankfurt); Promega NanoBRET for AURKA/B/C
To be noted: read-out: ΔTm MAPK8.

Test [3] addresses T3, BRAF (Homo sapiens, UniProt P15056).
T3 construct: purchased in-house thermal shift (DSF) kinase panel (SGC Frankfurt); Promega NanoBRET for AURKA/B/C
To be noted: read-out: ΔTm BRAF.

For test [4], the target named is T4, ULK3 (Homo sapiens, UniProt Q6PHR2).
T4 construct: purchased in-house thermal shift (DSF) kinase panel (SGC Frankfurt); Promega NanoBRET for AURKA/B/C
T4 sequence (Q6PHR2 1-277): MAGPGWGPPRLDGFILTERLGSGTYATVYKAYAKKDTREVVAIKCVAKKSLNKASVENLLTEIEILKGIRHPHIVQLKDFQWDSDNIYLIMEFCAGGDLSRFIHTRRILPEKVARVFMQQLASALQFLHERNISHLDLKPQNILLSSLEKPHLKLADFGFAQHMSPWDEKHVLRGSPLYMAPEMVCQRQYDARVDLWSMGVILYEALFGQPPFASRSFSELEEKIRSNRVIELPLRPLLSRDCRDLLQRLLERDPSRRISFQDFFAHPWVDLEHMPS
To be noted: read-out: ΔTm ULK3.

Test [5] concerns the target T5, STK26 (Homo sapiens, UniProt Q9P289).
T5 construct: purchased in-house thermal shift (DSF) kinase panel (SGC Frankfurt); Promega NanoBRET for AURKA/B/C
To be noted: read-out: ΔTm STK26.

Test [6] has as its target T6, GSG2 (Homo sapiens, UniProt Q8TF76).
T6 construct: purchased in-house thermal shift (DSF) kinase panel (SGC Frankfurt); Promega NanoBRET for AURKA/B/C
T6 sequence (Q8TF76 465-798): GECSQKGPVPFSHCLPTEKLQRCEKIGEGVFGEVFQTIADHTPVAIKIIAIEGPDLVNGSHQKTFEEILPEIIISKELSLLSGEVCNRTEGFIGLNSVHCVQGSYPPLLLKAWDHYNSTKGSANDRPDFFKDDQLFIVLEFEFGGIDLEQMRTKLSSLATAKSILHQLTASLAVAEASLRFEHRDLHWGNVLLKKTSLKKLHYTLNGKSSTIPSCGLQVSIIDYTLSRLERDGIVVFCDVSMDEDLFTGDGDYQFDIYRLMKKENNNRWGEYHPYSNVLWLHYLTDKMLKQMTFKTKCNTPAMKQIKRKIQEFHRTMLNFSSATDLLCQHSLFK
To be noted: compound 10 µM; n = 3.

The target of test [7] is T7, MAPK9 (Homo sapiens, UniProt P45984).
T7 construct: purchased in-house thermal shift (DSF) kinase panel (SGC Frankfurt); Promega NanoBRET for AURKA/B/C
To be noted: read-out: ΔTm MAPK9.

Test [8] deals with T8, CSNK2A1 (Homo sapiens, UniProt P68400).
T8 construct: purchased in-house thermal shift (DSF) kinase panel (SGC Frankfurt); Promega NanoBRET for AURKA/B/C
To be noted: read-out: ΔTm CSNK2A1.

For test [9], the target named is T9, PIM1 (Homo sapiens, UniProt P11309).
T9 construct: purchased in-house thermal shift (DSF) kinase panel (SGC Frankfurt); Promega NanoBRET for AURKA/B/C
To be noted: read-out: ΔTm PIM1.

Broadly, the ΔTm is the shift of the melting midpoint relative to a reference.

`CN[C@@H]1C[C@H]2O[C@@](C)([C@@H]1OC)n1c3ccccc3c3c4c(c5c6ccccc6n2c5c31)C(=O)NC4` [Staurosporine, reference compound]: the ΔTm at 10 µM was determined as 1.3 °C in test [1]; 6.6 °C in test [2]; 0.4 °C in test [3]; 18.5 °C in [4]; 6.9 °C in test [5]; 8.4 °C in test [6]. In addition, the ΔTm at 10 µM in test [7] was 3.3 °C; in [8], 2.3 °C; in [9] it was 11.4 °C.

The record behind these values is publication PMC8776063, “Aurora Kinase A Is Involved in Controlling the Localization of Aquaporin-2 in Renal Principal Cells” (International Journal of Molecular Sciences, 2022).
